# Laboratory results: paper PMC5520972 (Cancer chemotherapy and pharmacology, 2017)
# Details: day 8
smiles,measurement,value
CS(=O)(=O)c1ccc(C(=O)Nc2ccc(Cl)c(-c3ccccn3)c2)c(Cl)c1 [vismodegib],Correlation of vismodegib Css with AST or total bilirubin values,not correlated
